The test system of data set [1] is Calu-3 cells. As to conditions: human.
Data set [2] has as its system Calu-3 cells. The data set is described as follows: Uninfected Calu-3 48 h Cell-Titer Glo cytotoxicity counter screen. The following applies: read-out: Calu-3 uninfected cytotoxicity CC50 GeoMean; unrounded geometric mean.
Data set [3] deals with HeLa-ACE2 cells. The data set is described as follows: Uninfected HeLa-ACE2 24 h live/dead cytotoxicity counter screen. Background: Counterscreens check selectivity or assay interference.

Turning to Oligomycin A, in data set [1], the “Calu-3 uninfected cytotoxicity Sinf Average” value is recorded as -91%. For the same substance, the CC50 (commonly the concentration at which the toxic effect on the cells reaches its halfway point) was over 29.9 µM in data set [2] and over 36 µM in data set [3] (read-out: HeLa-ACE2 uninfected cytotoxicity CC50 GeoMean, unrounded geometric mean). The “HeLa-ACE2 uninfected cytotoxicity Sinf Average” value in data set [3] (curve-fit effect at infinite concentration, average) is listed as -100%.

These data come from paper PMC8175350, “Drug repurposing screens identify chemical entities for the development of COVID-19 interventions” (Nature Communications, 2021).
